According to patent US11242337B2, “Compounds useful for treating gastrointestinal tract disorders” (Ardelyx, Inc., priority 2017, dated 2022):

Columns and labels:
NHE3 [1] = target: T1, NHE3 (Homo sapiens, UniProt P48764); assay: Cell-based assay of NHE-3 activity (pre-incubation inhibition), human; conditions: human Preincubation, 0-30 μM test compound
T1 construct: expressed in transfected cells
T1 sequence (P48764 26-834): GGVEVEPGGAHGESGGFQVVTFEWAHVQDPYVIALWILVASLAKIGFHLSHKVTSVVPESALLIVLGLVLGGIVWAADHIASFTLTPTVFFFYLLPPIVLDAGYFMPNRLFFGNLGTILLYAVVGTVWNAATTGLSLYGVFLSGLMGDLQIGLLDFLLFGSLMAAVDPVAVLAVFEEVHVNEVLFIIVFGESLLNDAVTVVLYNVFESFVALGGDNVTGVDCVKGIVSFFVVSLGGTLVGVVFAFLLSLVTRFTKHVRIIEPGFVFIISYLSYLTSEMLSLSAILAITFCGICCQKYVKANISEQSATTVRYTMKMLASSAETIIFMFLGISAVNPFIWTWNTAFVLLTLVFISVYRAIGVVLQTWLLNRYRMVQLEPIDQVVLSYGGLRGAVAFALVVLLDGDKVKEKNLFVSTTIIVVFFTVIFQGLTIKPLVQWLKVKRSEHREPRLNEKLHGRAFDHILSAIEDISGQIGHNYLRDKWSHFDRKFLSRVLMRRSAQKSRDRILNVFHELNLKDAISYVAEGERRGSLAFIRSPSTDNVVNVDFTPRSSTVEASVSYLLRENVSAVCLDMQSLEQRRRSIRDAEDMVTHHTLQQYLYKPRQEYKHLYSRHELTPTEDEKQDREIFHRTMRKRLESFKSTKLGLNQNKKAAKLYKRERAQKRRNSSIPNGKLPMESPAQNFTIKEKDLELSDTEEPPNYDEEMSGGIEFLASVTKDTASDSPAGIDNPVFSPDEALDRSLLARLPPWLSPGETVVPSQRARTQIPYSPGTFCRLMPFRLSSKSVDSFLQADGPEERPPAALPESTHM
T1 sequence (Q99653 2-195 partner limits assumed): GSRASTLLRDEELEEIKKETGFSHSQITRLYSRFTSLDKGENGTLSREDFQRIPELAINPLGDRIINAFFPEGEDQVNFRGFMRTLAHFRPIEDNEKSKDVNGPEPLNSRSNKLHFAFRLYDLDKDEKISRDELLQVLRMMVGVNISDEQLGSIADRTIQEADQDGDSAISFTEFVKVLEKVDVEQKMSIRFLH
Method: Rat and human NHE-3-mediated Na^+-dependent H^+ antiport was measured using a modification of the pH sensitive dye method originally reported by Paradiso (Proc. Natl. Acad. Sci. USA. (1984) 81(23): 7436-7440). PS120 fibroblasts stably expressing human NHE3 and NHERF2 were obtained from Mark Donowitz (Baltimore, Md.). Opossum kidney (OK) cells were obtained from the ATCC and propagated per their instructions. The rat NHE-3 gene (GenBank M85300) was introduced into OK cells via electroporation, and cells were seeded into 96 well plates and grown overnight. Medium was aspirated from the wells then incubated for 30 min at 37° C. with NH4Cl-HEPES buffer (20 mM NH4Cl, 80 mM NaCl, 50 mM HEPES, 5 mM KCl, 2 mM CaCl2, 1 mM MgCl2, pH 7.4) containing 5 μM BCECF-AM. Cells were washed once with Ammonium free, Na^+-free HEPES (100 mM choline, 50 mM HEPES, 10 mM glucose, 5 mM KCl, 2 mM CaCl2, 1 mM MgCl2, pH 7.4) and incubated in the same buffer for 10 minutes at room temperature to lower intracellular pH with 0-30 μM test compound. […] Changes in intracellular pH were monitored using a FLIPR Tetra® (Molecular Devices, Sunnyvale, Calif.) by excitation at λex 439 to 505 nm, and measuring BCECF fluorescence at λem 538 nm. The initial rate of the fluorescence ratio change was used as a measure of NHE-mediated Na^+/H^+ activity, and reported as the change in fluorescence ratio per minute.

NHE3 [2] = target: T1, NHE3; assay: Cell-based assay of NHE-3 activity (persistent inhibition), human; conditions: human Persistence, 60 min incubation then washout
Method: The ability of compounds to inhibit human and rat NHE-3-mediated Na^+ dependent H^+ antiport after application and washout was measured using a modification of the pH sensitive dye method described above. PS120 fibroblasts stably expressing human NHE3 and NHERF2 were obtained from Mark Donowitz (Baltimore, Md.). Opossum kidney (OK) cells were obtained from the ATCC and propagated per their instructions. The rat NHE-3 gene was introduced into OK cells via electroporation, and cells were seeded into 96 well plates and grown overnight. Medium was aspirated from the wells, cells were washed once with NaCl-HEPES buffer (100 mM NaCl, 50 mM HEPES, 10 mM glucose, 5 mM KCl, 2 mM CaCl2, 1 mM MgCl2, pH 7.4), then overlayed with NaCl-HEPES buffer containing 0-30 μM test compound. After a 60 min incubation at room temperature, the test drug containing buffer was aspirated from the cells. […] Changes in intracellular pH were monitored using a FLIPR Tetra® (Molecular Devices, Sunnyvale, Calif.) by excitation at λex 439 to 505 nm, and measuring BCECF fluorescence at λem 538 nm. The initial rate of the fluorescence ratio change was used as a measure of NHE-mediated Na^+/H^+ activity, and reported as the change in fluorescence ratio per minute.

**Q.** With “3-[2-(2-[2-[(4-[[(1S,2S)-4,6-Dichloro-2-[(3R)-3-[methyl(propan-2-yl)amino]piperidin-1-yl]-2,3-dihydro-1H-inden-1-yl]oxy]benzene) sulfonamido]ethoxy]ethoxy)ethyl]-1-[4-([[2-(2-[2-[(4-[[(1S,2S)-4,6-dichloro-2-[(3R)-3-[methyl(propan-2-yl)amino]piperidin-1-yl]-2,3-dihydro-1H-inden-1-yl]oxy]benzene)sulfonamido]ethoxy]ethoxy)ethyl]carbamoyl]amino)butyl]urea; bis(trifluoroacetic acid) [Example 78]” as the substance, how does the pIC50 (NHE3 [1]) read?
**A.** Its pIC50 is “C (NHE3 pIC50 > 7)”.

**Q.** What about the pIC50 (NHE3 [2]) of the same substance?
**A.** The pIC50 was “C (NHE3 pIC50 > 7)”.
